Apparent affinities of Ab-14 variants for a coronavirus HR2 peptide

Source: Engelhart et al. 2022 (doi:10.1038/s41597-022-01779-4), MIT Lincoln Laboratory and A-Alpha Bio; data file from the FLAb repository.

The target is the same throughout: PDVDLGDISGINAS, from the HR2 region of SARS-CoV-2 spike.

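Phage display of a naive human antibody library on the peptide gave the parent. The library (AAYL50) carries one to three amino acid substitutions per variant, with no insertions or deletions. The scFvs were displayed on barcoded MATa yeast, the peptide on MATalpha yeast. Pairs that bind mate more often; barcode pairs of the diploids are counted by sequencing. A regression on co-assayed BCL2-family reference pairs converts the normalised counts of each replicate to an apparent Kd. Mating was done three times.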

Ab-14 is the parent antibody, in scFv form: VH, then a (GGGGS)3 linker, then VL. The heavy chain is unchanged in all variants.
VH: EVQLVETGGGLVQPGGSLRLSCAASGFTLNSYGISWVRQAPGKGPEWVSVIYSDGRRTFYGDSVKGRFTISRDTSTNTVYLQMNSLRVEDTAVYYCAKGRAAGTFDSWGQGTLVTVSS
VL: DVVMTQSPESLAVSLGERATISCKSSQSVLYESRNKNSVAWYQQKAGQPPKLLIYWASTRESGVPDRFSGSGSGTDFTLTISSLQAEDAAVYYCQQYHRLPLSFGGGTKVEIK

Each variant is given by its three light chain CDRs, as the data file delimits them; those of the parent are KSSQSVLYESRNKNSVA, WASTRES, QQYHRLPLS.
Values are log10 of the apparent Kd in nM; lower means stronger binding.
The mean shown is taken over the replicates in which the pair was detected.
Where no diploid with the target was found in that replicate, the entry reads "n.d.": below detection, most likely a poor binder, though not proof of it.

CDR-L1,CDR-L2,CDR-L3,"log10 Kd, replicates","mean, log10 nM",signal with controls
KSSLSVLYEVRNKNSVA,WASTRES,QIYHRLPLS,n.d. 3.04 3.01,3.03,1 of 9 (2.38)
KFSQSVLKESRLKNSVA,WASTRES,QQYHRLPLS,-0.15 0.19 -0.05,0.00,2 of 9 (4.75)
VSSQSVLYESVNKNSVA,WASTRES,QQYYRLPLS,0.90 1.06 1.09,1.02,3 of 9 (4.96)
KSSLSVLYEVRNKNHVA,WASTRES,QQYHRLPLS,n.d. 2.52 n.d.,2.52,0 of 9
KSSQSVLYESRNKNSVA,WASTQES,QQYHQHPLS,n.d. 4.32 n.d.,4.32,2 of 9 (3.88)
KSSQSCLYESRNKNSVA,WASWRES,QQYHRLPLS,4.29 2.77 n.d.,3.53,3 of 9 (3.93)
KSSQSVLYESRNPNSVA,WASTKES,QQYHQLPLS,1.07 1.31 1.81,1.40,2 of 9 (3.94)
KSSQSVFYESRNWNSVA,WASTRES,QNYHRLPLS,n.d. n.d. n.d.,n.d.,1 of 9 (2.16)
KSSQSVLYESVNKSSVA,WASTRES,QQYHRLPLE,0.24 0.46 0.36,0.35,4 of 9 (5.26)
KSSQSVLYGSLNKNSVA,WASTRES,QQYWRLPLS,1.44 1.44 1.57,1.49,6 of 9 (4.67)
KSSESVLYESRNKNSVA,WAVTRES,QQKHRLPLS,1.13 1.20 1.47,1.27,0 of 9
KSSQSVLYESRNKNSVA,WASTRES,FQLHRLPLG,n.d. 3.49 n.d.,3.49,0 of 9
KSSQSVLYESRNKNSVA,WPSTRES,QQYHRMPLR,n.d. n.d. n.d.,n.d.,0 of 9
KNSPSVLYESRVKNSVA,WASTRES,QQYHRLPLS,2.83 2.39 2.39,2.54,0 of 9
KSSQSVLYESRLKNSVA,WASTRSS,QQFHRLPLS,n.d. 2.41 1.78,2.10,0 of 9
KSKASVLYESRNKNSVA,WASTRES,QQYHDLPLS,1.11 1.35 1.35,1.27,1 of 9 (3.99)
KSSRSVLYWSRNKNSVA,WASTSES,QQYHRLPLS,n.d. n.d. n.d.,n.d.,6 of 9 (3.65)
KSSESVLYESRNKNSVA,EASTRES,QQYHRLPLR,-0.23 0.04 -0.02,-0.07,0 of 9
FSSQSVLYESRNKFSVA,WLSTRES,QQYHRLPLS,n.d. n.d. n.d.,n.d.,0 of 9
KSCQSVLYESRNKNSVA,WASTREH,QQYHRLPLM,-0.26 -0.03 -0.10,-0.13,1 of 9 (4.88)
KSSQSVLYESRNANSVA,WASTYES,QQYHRRPLS,n.d. n.d. n.d.,n.d.,3 of 9 (4.66)
KSSQSVLYESRNKTSVA,WAMTRES,QQYHFLPLS,2.35 1.86 2.18,2.13,2 of 9 (4.65)
KSSQSVLYESRNKNFVA,WASTIES,QQYARLPLS,n.d. n.d. 3.33,3.33,2 of 9 (3.86)
KSSQSVLYESRNANSVA,WASTREM,QQYHRLPLP,2.04 1.69 1.91,1.88,2 of 9 (5.49)
KSSQSVLYESRNPNSVA,WASWRES,QQYHRLPLM,2.74 2.57 2.47,2.59,2 of 9 (3.04)
KSQQSVLYHSRNKNSVA,WASTRES,QQYHRLPCS,4.79 4.33 n.d.,4.56,7 of 9 (4.91)
KSNQSVPYESSNKNSVA,WASTRES,QQYHRLPLS,0.82 1.11 0.83,0.92,1 of 9 (3.53)
KSSQSVLYESDNKNSVA,WAMTREY,QQYHRLPLS,0.87 0.81 0.83,0.84,1 of 9 (4.77)
KSSQSVLYESRNKQSVA,WACTRES,QKYHRLPLS,n.d. 5.20 n.d.,5.20,2 of 9 (3.42)
KSSQSVLYERRNKNSVA,WASTRES,QQYHYLELS,n.d. n.d. n.d.,n.d.,0 of 9

The 3 strongest on average among those seen in every replicate, once more:

| CDR-L1 | CDR-L2 | CDR-L3 | log10 Kd, replicates | mean, log10 nM | signal with controls |
|---|---|---|---|---|---|
| KSCQSVLYESRNKNSVA | WASTREH | QQYHRLPLM | -0.26 -0.03 -0.10 | -0.13 | 1 of 9 (4.88) |
| KSSESVLYESRNKNSVA | EASTRES | QQYHRLPLR | -0.23 0.04 -0.02 | -0.07 | 0 of 9 |
| KFSQSVLKESRLKNSVA | WASTRES | QQYHRLPLS | -0.15 0.19 -0.05 | 0.00 | 2 of 9 (4.75) |

Nonspecific signal, from three strains lacking the peptide, appeared in 18% of pairings of library AAYL50, centred on 4.19 (5% of these signals below 2.99); values are not corrected for it. For each scFv, signals with the empty controls are counted beside the result, with their mean in brackets.
In this assay the parent's reference entry averaged 0.65; its copy inside this library read 1.68.